Target: Recombinant Human 5′-Nucleotidase (CD73) (Homo sapiens, UniProt P21589)
Experiment: CD73 Enzyme Assay (PiColorLock inorganic phosphate detection, AMP substrate)
Conditions: read-out: Potency (IC50); human CD73 0.5 nM, AMP 30 μM, 20 min at 37° C., absorbance 635 nm
Text: Soluble recombinant CD73 catalyzes the conversion of adenosine monophosphate (AMP) to adenosine and inorganic phosphate. The phosphate detection reagent, PiColorLock™ (Innova Bioscience, Cat #303-0125) is based on the change in absorbance of the dye malachite green in the presence of inorganic phosphate (Pi) and this property can be exploited to measure any enzyme that generates Pi. Recombinant Human 5′-Nucleotidase (CD73) (R&D #5795-EN, CHO derived CD73 (Trp27-Lys547), with a C-terminal 6-His tag) was used in the enzymatic assay. This assay, run in a 384-well plate format (Corning® NBS™ 384 well plates, Cat #3640), is a generic method for measuring inorganic phosphate. […] After incubation the absorbance of the solution is read at OD 635 nm. The recorded OD signal is proportional to the enzyme activity.
Briefly, 25 μl human CD73 (0.5 nM final concentration) in the enzymatic buffer solutions (20 mM Tris, 25 mM NaCl, 1 mM MgCl2, pH 7.5, 0.005% Tween-20) were mixed with various concentrations of the test compound (dissolved in 100% DMSO). […] The absorbance of the well solutions was measured at 635 nm on a Spark 10M instrument (TECAN).
The percent (%) inhibition at each concentration of a compound was calculated relative to the […] value in the Max and Min control wells contained within each assay plate. […]

Amino acid sequences for entries named in this document (tags omitted). Residues count along the entry.
UniProt P21589, 27-547 limits assumed: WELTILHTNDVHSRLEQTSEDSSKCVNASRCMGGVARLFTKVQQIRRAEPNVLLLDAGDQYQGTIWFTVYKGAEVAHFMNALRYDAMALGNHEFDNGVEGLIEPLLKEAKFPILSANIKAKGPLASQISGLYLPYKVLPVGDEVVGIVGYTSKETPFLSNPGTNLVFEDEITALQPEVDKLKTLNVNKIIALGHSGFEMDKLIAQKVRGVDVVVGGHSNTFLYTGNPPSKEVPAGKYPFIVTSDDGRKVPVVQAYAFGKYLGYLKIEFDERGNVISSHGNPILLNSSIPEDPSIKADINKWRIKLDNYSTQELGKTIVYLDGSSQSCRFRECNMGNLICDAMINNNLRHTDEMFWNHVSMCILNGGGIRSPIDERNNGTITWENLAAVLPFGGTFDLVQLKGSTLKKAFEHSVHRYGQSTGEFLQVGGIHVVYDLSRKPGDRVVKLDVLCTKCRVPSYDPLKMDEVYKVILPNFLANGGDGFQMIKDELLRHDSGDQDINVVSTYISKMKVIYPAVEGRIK

In the case of `N#Cc1cc(N2CC3CCCC3C2)c2ncc([C@@H]3O[C@H](COP(=O)(O)CP(=O)(O)O)[C@@H](O)[C@H]3O)n2n1` (stereo partly shown), the IC50 is reported as under 1 nM.
